Chains of the proteins cited; added tags and fusions are not shown. Lines headed by an entry give the natural chain unless they say otherwise; changes in a name come on top.
UniProt Q9UNQ0: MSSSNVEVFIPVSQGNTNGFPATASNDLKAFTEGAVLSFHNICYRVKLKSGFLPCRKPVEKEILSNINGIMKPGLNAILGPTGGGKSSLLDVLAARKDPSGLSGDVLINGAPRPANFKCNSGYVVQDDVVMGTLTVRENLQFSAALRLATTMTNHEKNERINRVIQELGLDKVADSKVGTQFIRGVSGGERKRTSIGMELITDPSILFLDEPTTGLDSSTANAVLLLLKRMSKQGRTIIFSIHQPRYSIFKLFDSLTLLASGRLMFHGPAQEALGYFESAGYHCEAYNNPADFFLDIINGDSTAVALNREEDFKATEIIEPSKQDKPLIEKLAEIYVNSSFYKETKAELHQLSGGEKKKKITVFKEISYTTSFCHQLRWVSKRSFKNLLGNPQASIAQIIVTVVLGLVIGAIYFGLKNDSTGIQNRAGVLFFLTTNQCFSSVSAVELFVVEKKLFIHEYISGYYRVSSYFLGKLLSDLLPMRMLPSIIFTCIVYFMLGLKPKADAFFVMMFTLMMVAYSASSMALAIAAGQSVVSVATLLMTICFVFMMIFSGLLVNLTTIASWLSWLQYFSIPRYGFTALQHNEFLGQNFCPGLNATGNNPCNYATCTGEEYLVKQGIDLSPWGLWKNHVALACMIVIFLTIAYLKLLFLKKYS

According to publication PMC12567041 (Pharmaceutics, 2025):

Key:
in vitro = conditions: dog, MDCK
BCRP = BCRP (Homo sapiens, UniProt Q9UNQ0); conditions: read-out: BCRP Ki; Simcyp SV-Rifampicin-SD library compound file; cited from earlier work

Row | SMILES | Papp A→B (in vitro) | Ki (BCRP)
1 | O=C(Nc1ccc(OC(F)(F)Cl)cc1)c1cnc(N2CC[C@@H](O)C2)c(-c2ccn[nH]2)c1 [asciminib] | 22.1 ×10⁻⁶ cm/s | –
2 | CO[C@H]1/C=C/O[C@@]2(C)Oc3c(C)c(O)c4c(O)c(c(/C=N/N5CCN(C)CC5)c(O)c4c3C2=O)NC(=O)/C(C)=C\C=C\[C@H](C)[C@H](O)[C@@H](C)[C@@H](O)[C@@H](C)[C@H](OC(C)=O)[C@@H]1C [rifampicin] | – | 12.5 µM
